CycPeptMPDB entries from one study

Collected by the curators of CycPeptMPDB (Li et al. 2023) from Kelly et al. 2021, doi:10.1021/jacs.0c06115.

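The data file gives no further conditions (lipid, pH, time, direction or concentration), and values from different papers need not be comparable. Other peptides of the study may be missing here. Peptides that the database sets to -10, its floor, are left out.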

PAMPA is the parallel artificial membrane permeability assay, which has no cells and reads passive diffusion. Permeability is given as log10 of P in cm/s; higher (less negative) is more permeable.

structure (SMILES)	PAMPA (log10 cm/s)
CC(=O)N1CCC[C@H]1C(=O)N(C)[C@@H](CC(C)C)C(=O)N[C@@H]1C(=O)N[C@@H](CC(C)C)C(=O)N(C)[C@H](CC(C)C)C(=O)N(C)[C@@H](CC(C)C)C(=O)N(C)[C@@H](C)C(=O)N[C@@H](CC(C)C)C(=O)N2CCC[C@@H]2C(=O)O[C@@H]1C	-5.62
CC(=O)N1CCC[C@@H]1C(=O)N(C)[C@H](CC(C)C)C(=O)N[C@@H]1C(=O)N(C)[C@@H](CC(C)C)C(=O)N(C)[C@H](CC(C)C)C(=O)N(C)[C@H](CC(C)C)C(=O)N(C)[C@H](C)C(=O)N[C@H](CC(C)C)C(=O)N2CCC[C@@H]2C(=O)O[C@@H]1C	-5.28
CC(=O)N1CCC[C@H]1C(=O)N(C)[C@H](CC(C)C)C(=O)N[C@@H]1C(=O)N[C@@H](CC(C)C)C(=O)N(C)[C@@H](CC(C)C)C(=O)N[C@H](CC(C)C)C(=O)N(C)[C@@H](C)C(=O)N[C@@H](CC(C)C)C(=O)N2CCC[C@@H]2C(=O)O[C@@H]1C	-6.49
CC(=O)N1CCC[C@@H]1C(=O)N(C)[C@@H](CC(C)C)C(=O)N[C@@H]1C(=O)N(C)[C@H](CC(C)C)C(=O)N[C@H](CC(C)C)C(=O)N(C)[C@@H](CC(C)C)C(=O)N(C)[C@@H](C)C(=O)N[C@@H](CC(C)C)C(=O)N2CCC[C@H]2C(=O)O[C@@H]1C	-5.36
CC(=O)N1CCC[C@@H]1C(=O)N(C)[C@@H](CC(C)C)C(=O)N[C@@H]1C(=O)N[C@H](CC(C)C)C(=O)N[C@H](CC(C)C)C(=O)N(C)[C@H](CC(C)C)C(=O)N[C@H](C)C(=O)N[C@H](CC(C)C)C(=O)N2CCC[C@H]2C(=O)O[C@@H]1C	-5.78
CC(=O)N1CCC[C@H]1C(=O)N(C)[C@@H](CC(C)C)C(=O)N[C@@H]1C(=O)N(C)[C@@H](CC(C)C)C(=O)N[C@@H](CC(C)C)C(=O)N[C@H](CC(C)C)C(=O)N[C@@H](C)C(=O)N[C@@H](CC(C)C)C(=O)N2CCC[C@H]2C(=O)O[C@@H]1C	-5.77
CC(=O)N1CCC[C@@H]1C(=O)N(C)[C@@H](CC(C)C)C(=O)N[C@@H]1C(=O)N[C@@H](CC(C)C)C(=O)N(C)[C@@H](CC(C)C)C(=O)N(C)[C@@H](CC(C)C)C(=O)N(C)[C@H](C)C(=O)N[C@@H](CC(C)C)C(=O)N2CCC[C@H]2C(=O)O[C@@H]1C	-5.72
CC(=O)N1CCC[C@@H]1C(=O)N(C)[C@H](CC(C)C)C(=O)N[C@@H]1C(=O)N(C)[C@@H](CC(C)C)C(=O)N(C)[C@@H](CC(C)C)C(=O)N[C@H](CC(C)C)C(=O)N(C)[C@H](C)C(=O)N[C@H](CC(C)C)C(=O)N2CCC[C@@H]2C(=O)O[C@@H]1C	-5.63
CC(=O)N1CCC[C@H]1C(=O)N(C)[C@@H](CC(C)C)C(=O)N[C@@H]1C(=O)N(C)[C@@H](CC(C)C)C(=O)N[C@H](CC(C)C)C(=O)N(C)[C@@H](CC(C)C)C(=O)N(C)[C@@H](C)C(=O)N[C@@H](CC(C)C)C(=O)N2CCC[C@H]2C(=O)O[C@@H]1C	-5.80
CC(=O)N1CCC[C@H]1C(=O)N[C@@H]1C(=O)N(C)[C@H](CC(C)C)C(=O)N(C)[C@H](CC(C)C)C(=O)N(C)[C@@H](CC(C)C)C(=O)N[C@@H](CC(C)C)C(=O)N(C)[C@@H](C)C(=O)N[C@@H](CC(C)C)C(=O)N2CCC[C@@H]2C(=O)O[C@@H]1C	-5.09
CC(=O)N1CCC[C@H]1C(=O)N[C@@H]1C(=O)N(C)[C@H](CC(C)C)C(=O)N(C)[C@@H](CC(C)C)C(=O)N(C)[C@H](CC(C)C)C(=O)N(C)[C@H](CC(C)C)C(=O)N(C)[C@H](C)C(=O)N[C@@H](CC(C)C)C(=O)N2CCC[C@@H]2C(=O)O[C@@H]1C	-5.32
CC(=O)N1CCC[C@H]1C(=O)N(C)[C@@H](CC(C)C)C(=O)N[C@@H]1C(=O)N[C@H](CC(C)C)C(=O)N[C@H](CC(C)C)C(=O)N(C)[C@H](CC(C)C)C(=O)N[C@@H](C)C(=O)N[C@H](CC(C)C)C(=O)N2CCC[C@H]2C(=O)O[C@@H]1C	-5.50
CC(=O)N1CCC[C@H]1C(=O)N[C@@H]1C(=O)N[C@H](CC(C)C)C(=O)N(C)[C@@H](CC(C)C)C(=O)N[C@@H](CC(C)C)C(=O)N(C)[C@H](CC(C)C)C(=O)N[C@H](C)C(=O)N[C@@H](CC(C)C)C(=O)N2CCC[C@@H]2C(=O)O[C@@H]1C	-5.25
CC(=O)N1CCC[C@@H]1C(=O)N(C)[C@H](CC(C)C)C(=O)N[C@@H]1C(=O)N(C)[C@H](CC(C)C)C(=O)N(C)[C@H](CC(C)C)C(=O)N(C)[C@@H](CC(C)C)C(=O)N(C)[C@H](C)C(=O)N[C@H](CC(C)C)C(=O)N2CCC[C@H]2C(=O)O[C@@H]1C	-5.20
CC(=O)N1CCC[C@@H]1C(=O)N(C)[C@H](CC(C)C)C(=O)N[C@@H]1C(=O)N(C)[C@H](CC(C)C)C(=O)N[C@@H](CC(C)C)C(=O)N[C@H](CC(C)C)C(=O)N[C@@H](C)C(=O)N[C@H](CC(C)C)C(=O)N2CCC[C@H]2C(=O)O[C@@H]1C	-6.85

Extract of 2 entries:

structure (SMILES)	PAMPA (log10 cm/s)
CC(=O)N1CCC[C@H]1C(=O)N(C)[C@@H](CC(C)C)C(=O)N[C@@H]1C(=O)N(C)[C@@H](CC(C)C)C(=O)N[C@@H](CC(C)C)C(=O)N[C@H](CC(C)C)C(=O)N[C@@H](C)C(=O)N[C@@H](CC(C)C)C(=O)N2CCC[C@H]2C(=O)O[C@@H]1C	-5.77
CC(=O)N1CCC[C@H]1C(=O)N(C)[C@@H](CC(C)C)C(=O)N[C@@H]1C(=O)N(C)[C@@H](CC(C)C)C(=O)N[C@H](CC(C)C)C(=O)N(C)[C@@H](CC(C)C)C(=O)N(C)[C@@H](C)C(=O)N[C@@H](CC(C)C)C(=O)N2CCC[C@H]2C(=O)O[C@@H]1C	-5.80